Experiment: Hydrophilicity-hydrophobicity coefficient from water activity value of 20% aqueous solution (equation (A))
Type: physicochemical
Details: water activity by chilled mirror dew point method (AquaLab CX-3TE) at 25° C.

OCC(O)COCC(O)CO (stereo not shown) [Diglycerin]
Hydrophilicity-hydrophobicity coefficient: 0.08

— US9278527B2, “Ink jet recording ink, ink jet recording method, ink jet recording head, and ink jet recording apparatus” (CANON FINETECH INC., priority 2013, dated 2016)
